# From US7572606B1 (Nereus Pharmaceuticals, Inc., priority 2005, dated 2009)
# Tests used:
# [1] = molecular target: chymotrypsin-like activity of rabbit muscle 20S proteasome (Oryctolagus cuniculus, UniProt G1T4Q9); test: In vitro inhibition of 20S proteasome, suc-LLVY-AMC; conditions: chymotrypsin-like activity of purified 20S proteasomes
# MALME-3M = test: NCI 60 cell line screen, sulforhodamine B, 48 h; assay type: cell-based; conditions: Homo sapiens, read-out: Log10 LC50 (converted)
# SR = test: NCI 60 cell line screen, sulforhodamine B, 48 h; assay type: cell-based; conditions: Homo sapiens, read-out: Log10 LC50 (converted)
smiles,measurement,setting,value
C[C@@]12OC(=O)[C@]1([C@@H](O)[C@@H]1C=CCCC1)NC(=O)[C@@H]2CCCl [Salinosporamide A],IC50,[1],0.002 µM
same,CC50,MALME-3M,64.6 µM
same,CC50,SR,64.6 µM
